# Measured values reported in PubChem BioAssay AID1009 (NMMLSC, 2008).
# Sequences of proteins named here, by UniProt entry; tags and fusion partners are left off.
# UniProt Q07820, whole entry: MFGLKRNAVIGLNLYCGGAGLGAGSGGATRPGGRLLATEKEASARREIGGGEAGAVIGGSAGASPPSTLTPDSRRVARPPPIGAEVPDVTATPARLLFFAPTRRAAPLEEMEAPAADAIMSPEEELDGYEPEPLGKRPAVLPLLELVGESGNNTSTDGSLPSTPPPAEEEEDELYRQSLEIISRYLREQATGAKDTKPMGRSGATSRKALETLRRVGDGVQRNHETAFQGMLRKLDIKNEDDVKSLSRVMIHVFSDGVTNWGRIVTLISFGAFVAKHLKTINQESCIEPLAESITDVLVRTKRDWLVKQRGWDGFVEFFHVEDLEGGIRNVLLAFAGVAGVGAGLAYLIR
# Only a part is listed here, and it is no random draw. The source made the active and inactive calls. No stated cut-off is given here; in the data, active means inhibition above about 40%.
# Biological target: Induced myeloid leukemia cell differentiation protein Mcl-1 (Homo sapiens) (UniProt Q07820)
# Test: Mcl-1/Bim interaction disruptors – biochemical, bead-based flow cytometry, multiplex, primary screen (AID 1009);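 further: 0% = no compound tracer wells and 100% = peptide blocker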
# Conditions: Bim peptide-Mcl-1 binding, at 10 µM, stronger effect = higher value
row,SMILES,inhibition
1,COc1ccc(OP(C)(=O)Nc2ccc(Br)cc2)cc1 (centres undefined),inactive: -3%
2,CCN(CC)CC(O)COC(=O)C(O)(c1ccccc1)C1CCCCC1 (centres undefined),inactive: 6%
3,CCc1ccc(OP(C)(=O)Nc2cccnc2)cc1 (centres undefined),inactive: 1%
4,CP(=O)(Oc1ccccc1)N1CCOC1=O (centres undefined),inactive: -1%
5,COc1ccccc1OP(C)(=O)Nc1ccccc1Br (centres undefined),inactive: 0%
6,CC(C)(C)c1ccc(OP(C)(=O)O)cc1,inactive: 1%
7,CP(=O)(Nc1ccc(Cl)cc1)Oc1ccc(F)cc1 (centres undefined),inactive: -2%
8,CN(C)C(=O)c1c([N+](=O)[O-])cc([N+](=O)[O-])cc1[N+](=O)[O-],inactive: 2%
9,CCOC(=O)c1ccc(NP(C)(=O)Oc2ccc(Cl)cc2)cc1 (centres undefined),inactive: -2%
10,CP(=O)(OC12CC3CC(CC(C3)C1)C2)OC12CC3CC(CC(C3)C1)C2,inactive: -4%
11,Cc1cc(C)cc(OP(C)(=O)Nc2cccc(C(F)(F)F)c2)c1 (centres undefined),inactive: -1%
12,COc1ccccc1OP(C)(=O)Nc1ccc(C)c(C)c1 (centres undefined),inactive: 2%
13,COc1ccc(OP(C)(=O)Nc2ccccc2Br)cc1 (centres undefined),inactive: -6%
14,Cc1nc2ccc3ccccc3c2o1.O=[N+]([O-])c1cc([N+](=O)[O-])c(O)c([N+](=O)[O-])c1,inactive: 0%
15,CP(=O)(Nc1ccc(Cl)cc1Cl)Oc1ccccc1 (centres undefined),inactive: 0%
16,CP(=O)(OCCOc1ccccc1)OCCOc1ccccc1,inactive: -1%
17,COc1ccc(OP(C)(=O)Nc2ccccn2)cc1 (centres undefined),inactive: -4%
18,CN(C)CCOC(=O)C(O)(c1ccccc1)C1CCCC1 (centres undefined),inactive: 2%
19,Cc1c(NP(C)(=O)Oc2ccc(C(C)C)cc2)c(=O)n(-c2ccccc2)n1C (centres undefined),inactive: 0%
20,O=[N+]([O-])c1cc([N+](=O)[O-])c(Nc2ccccn2)c([N+](=O)[O-])c1,inactive: 0%
21,COc1ccccc1OP(C)(=O)Nc1ccc(C)cc1C (centres undefined),inactive: 1%
22,CP(=O)(Nc1ccccn1)Oc1ccccc1 (centres undefined),inactive: 0%
23,CCc1ccc(OP(C)(=O)O)cc1,inactive: 0%

row,SMILES,inhibition
1,CP(=O)(Nc1ccccc1F)Oc1ccccc1 (centres undefined),inactive: 0%
2,CC(C)c1ccc(OP(C)(=O)Nc2ccc(SC(F)(F)F)cc2)cc1 (centres undefined),inactive: -24%
3,O=C(OCCN1CCN(CCOCc2ccccc2)CC1)C(O)(c1ccccc1)c1ccccc1,inactive: -7%
4,CCOC(=O)c1ccc(NP(C)(=O)Oc2ccc(F)cc2)cc1 (centres undefined),inactive: -3%
5,COc1ccc(OP(C)(=O)Nc2ccc(SC(F)(F)F)cc2)cc1 (centres undefined),inactive: 0%
6,CCN(CC)CCCOC(=O)C(O)(c1ccccc1)C1CCCCC1 (centres undefined),inactive: -2%
7,CP(=O)(Nc1ccccc1)Oc1ccc(F)cc1 (centres undefined),inactive: -4%
8,COc1ccc(OP(C)(=O)Nc2cccc(Br)c2)cc1 (centres undefined),inactive: -3%
9,CN(C)CCOC(=O)C(O)(c1ccccc1)C1CCCCC1 (centres undefined),inactive: 0%
10,COc1ccc(NP(C)(=O)Oc2ccccc2OC)cc1 (centres undefined),inactive: -4%
11,O=[N+]([O-])c1cc([N+](=O)[O-])c(NCC2CCS(=O)(=O)C2)c([N+](=O)[O-])c1 (centres undefined),inactive: 0%
12,CCOP(C)(=S)SCC(=O)NC(C)(CC)C(=O)O (centres undefined),inactive: -1%
13,CP(=O)(Nc1ccc2c(c1)OCCO2)Oc1ccccc1 (centres undefined),inactive: -4%
14,Cc1ccccc1NP(C)(=O)Nc1ccccc1C,inactive: 0%
15,O=[N+]([O-])c1cc([N+](=O)[O-])c(-n2nnc3ccccc32)c([N+](=O)[O-])c1,inactive: -2%
16,Cc1nc2ccc3ccccc3c2s1.O=[N+]([O-])c1cc([N+](=O)[O-])c(O)c([N+](=O)[O-])c1,inactive: -4%
17,CN1CCCCC1COC(=O)C1(O)c2ccccc2CCc2ccccc21 (centres undefined),inactive: -1%
18,COc1ccccc1OP(C)(=O)Nc1c(C)cccc1C (centres undefined),inactive: 0%
19,CCCOc1ccc(NP(C)(=O)Oc2ccc(Cl)cc2)cc1 (centres undefined),inactive: -1%
20,CP(=O)(Nc1ccc(SC(F)(F)F)cc1)Oc1ccccc1 (centres undefined),inactive: -3%
21,CC1=NCCc2c1[nH]c1ccccc21.O=[N+]([O-])c1cc([N+](=O)[O-])c(O)c([N+](=O)[O-])c1,inactive: 0%
22,CCOC(=O)c1ccc(NP(C)(=O)Oc2cc(C)cc(C)c2)cc1 (centres undefined),inactive: -1%
23,Cc1cc(C)cc(OP(C)(=O)Nc2ccc(C)cc2C)c1 (centres undefined),inactive: 0%

row,SMILES,inhibition
1,Cc1ccc(C)c(NP(C)(=O)Oc2ccccc2)c1 (centres undefined),inactive: -4%
2,Cc1cc(C)cc(OP(C)(=O)Nc2ccccn2)c1 (centres undefined),inactive: -1%
3,CP(=O)(Nc1cccc(Br)c1)Oc1ccccc1 (centres undefined),inactive: 1%
4,CCN(CC)CCCOC(=O)C(O)(c1ccccc1)c1ccccc1,inactive: -1%
5,O=[N+]([O-])c1ccc2c(c1)C=Nc1ccccc1O2,inactive: 0%
6,Cc1cccc(C)c1OP(C)(N)=O (centres undefined),inactive: 0%
7,CC(C)(C)c1ccc(OP(C)(=O)Nc2ccc(SC(F)(F)F)cc2)cc1 (centres undefined),inactive: -3%
8,Cc1ccc(NP(C)(=O)Oc2ccccc2)c(C)c1 (centres undefined),inactive: 1%
9,COc1ccccc1OP(C)(=O)Nc1ccc(C)cc1 (centres undefined),inactive: 7%
10,CCOC(=O)c1ccc(NP(C)(=O)Oc2ccccc2)cc1 (centres undefined),inactive: -4%
11,Cc1cc(C)cc(OP(C)(N)=O)c1 (centres undefined),inactive: -2%
12,COc1ccc(OP(C)(=O)Nc2cccc(F)c2)cc1 (centres undefined),inactive: 0%
13,COc1ccccc1OP(C)(=O)Nc1cc(Cl)ccc1C (centres undefined),inactive: -4%
14,CP(=S)(Nn1cnnc1)Oc1ccccc1 (centres undefined),inactive: -1%
15,CP(=O)(Nc1ccccc1Br)Oc1ccccc1 (centres undefined),inactive: -1%
16,COc1ccccc1OP(C)(=O)Nc1ccccc1 (centres undefined),inactive: -2%
17,CP(=O)(Oc1ccccc1)OC(c1ccccc1)C(F)(F)F (centres undefined),inactive: -1%
18,Cc1cccc(C)c1OP(C)(=O)Nc1ccc(SC(F)(F)F)cc1 (centres undefined),inactive: 12%
19,Cc1cc(C)cc(OP(C)(=O)Nc2ccc(SC(F)(F)F)cc2)c1 (centres undefined),inactive: -2%
20,CP(=O)(NC(=O)Nc1ccccc1)Oc1ccccc1 (centres undefined),inactive: -4%
21,CCOC(=O)c1ccc(NP(C)(=O)Oc2ccc(OC)cc2)cc1 (centres undefined),inactive: -7%
22,CCOP(C)(=S)SCC(=O)NC(C)C(=O)O (centres undefined),inactive: 3%
23,CP(=O)(Nc1ccccn1)Oc1ccc(Cl)cc1 (centres undefined),inactive: -1%
